The data set has as its system dog liver microsomes (CYP2D15, CYP3A12, CYP2C21/41). The class given is in vitro ADME, Beagle dog. The following applies: 100 μM quinidine, 10 μM CIT, n = 5.

With `C=C[C@H]1C[N@@]2CC[C@H]1C[C@@H]2[C@@H](O)c1ccnc2ccc(OC)cc12` [quinidine], the “difference in the production of R-DCIT from CIT in comparison to absence of the inhibitor” value is 24.5 ± 11.4 pmol/(min × mg protein).
